Apparent affinities of Ab-91 variants for a coronavirus HR2 peptide

The measurements come from Engelhart et al. 2022 (doi:10.1038/s41597-022-01779-4) through the FLAb antibody collection.

Antigen: PDVDLGDISGINAS, a 14-residue peptide of the SARS-CoV-2 spike HR2 region.

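In library AAYL51, one, two or three CDR residues were substituted; doubles and triples were drawn at random. AlphaSeq pools MATa yeast showing the antibodies with MATalpha yeast showing the peptide. After mating in shaken culture at 30 °C for 16 h, diploids were selected and their barcode pairs sequenced. A regression on co-assayed BCL2-family reference pairs converts the normalised counts of each replicate to an apparent Kd. Mating was done three times.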

Ab-91 is the parent antibody, in scFv form: VL, then a (GGGGS)3 linker, then VH. The light chain is unchanged in all variants.
VL: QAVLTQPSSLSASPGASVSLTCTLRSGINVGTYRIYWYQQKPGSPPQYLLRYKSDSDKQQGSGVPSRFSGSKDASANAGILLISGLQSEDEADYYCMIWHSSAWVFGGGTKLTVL
VH: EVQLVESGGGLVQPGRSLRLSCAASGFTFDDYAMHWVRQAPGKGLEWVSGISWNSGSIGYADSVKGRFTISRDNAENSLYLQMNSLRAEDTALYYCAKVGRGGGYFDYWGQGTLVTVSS

Each variant's VH is given in full. Numbers give log10(Kd / nM), so 0 is 1 nM and 3 is 1 µM. Smaller is tighter. An entry "nd" has no value in the source: the pair was not observed among the diploids in that replicate. This suggests poor binding but is not conclusive.

VH,"replicates, log10 nM",control signals
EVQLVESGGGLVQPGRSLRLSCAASGFTFDDYAMHWVRQAPGKGLEWVSGISWNSGSPGYLDSVKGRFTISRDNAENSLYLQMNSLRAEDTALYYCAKVGRGGGYDDYWGQGTLVTVSS,4.52 / nd / nd,2/9 (2.96)
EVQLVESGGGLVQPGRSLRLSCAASGATFDDYAMHWVRQAPGKGLEWVSWISWNSGDIGYADSVKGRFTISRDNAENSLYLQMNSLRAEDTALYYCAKVGRGGGYFDYWGQGTLVTVSS,nd / nd / nd,1/9 (2.92)
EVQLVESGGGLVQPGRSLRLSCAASGFTEDDYAWHWVRQAPGKGLEWVSGISWQSGSIGYADSVKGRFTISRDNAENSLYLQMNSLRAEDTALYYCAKVGRGGGYFDYWGQGTLVTVSS,nd / 4.84 / 4.90,2/9 (4.06)
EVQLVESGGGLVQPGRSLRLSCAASGFPFDDYSMHWVRQAPGKGLEWVSGISWNSGSRGYADSVKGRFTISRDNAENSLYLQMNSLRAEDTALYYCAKVGRGGGYFDYWGQGTLVTVSS,2.61 / 3.18 / 3.07,0/9
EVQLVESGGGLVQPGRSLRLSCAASGFTFDDYAMHWVRQAPGKGLEWVSGISSNSGSIGCADSVKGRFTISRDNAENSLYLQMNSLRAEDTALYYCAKVGRGGGYFDGWGQGTLVTVSS,nd / nd / nd,0/9
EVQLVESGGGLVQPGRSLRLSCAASGFTFNDYAMHWVRQAPGKGLEWVSGISWNSGSIGYADNVKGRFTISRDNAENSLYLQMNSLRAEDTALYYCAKVGRGGGYNDYWGQGTLVTVSS,nd / nd / nd,0/9
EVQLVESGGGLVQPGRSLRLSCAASGFTFDDYAMHWVRQAPGKGLEWVSGISWNSGSCAYADSVKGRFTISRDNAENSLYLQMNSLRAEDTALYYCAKVGRGGGYFDYWGQGTLVTVSS,4.56 / 3.89 / nd,2/9 (3.64)
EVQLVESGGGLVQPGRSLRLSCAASGFTKDDYAMNWVRQAPGKGLEWVSGISWNSGSISYADSVKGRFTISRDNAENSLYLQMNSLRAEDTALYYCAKVGRGGGYFDYWGQGTLVTVSS,nd / nd / nd,3/9 (4.30)
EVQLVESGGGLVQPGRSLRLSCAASRFTFDDYAMHWVRQAPGKGLEWVSGISWNSGGIGYADSVKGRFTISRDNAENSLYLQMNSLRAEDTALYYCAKVGRGGGYIDYWGQGTLVTVSS,nd / nd / nd,0/9
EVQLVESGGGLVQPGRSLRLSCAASGVTFDDYAMHWVRQAPGKGLEWVSGISANSGSIGYADSIKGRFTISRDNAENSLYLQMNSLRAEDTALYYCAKVGRGGGYFDYWGQGTLVTVSS,0.59 / 2.20 / 0.18,0/9
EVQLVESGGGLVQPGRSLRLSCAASGFTFDDYAMHWVRQAPGKGLEWVSGISWSVGSIGYAASVKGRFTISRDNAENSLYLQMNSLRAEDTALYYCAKVGRGGGYFDYWGQGTLVTVSS,nd / nd / nd,1/9 (3.76)
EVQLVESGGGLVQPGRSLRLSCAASGFTFDDYAMHWVRQAPGKGLEWVSGISWNSGSIGYADSVKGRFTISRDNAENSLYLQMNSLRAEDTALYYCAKAFRGGGYDDYWGQGTLVTVSS,3.33 / 3.97 / 2.83,1/9 (4.07)
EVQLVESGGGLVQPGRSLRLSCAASGFTFDDYAMHWVRQAPGKGLEWVSGISWNSGSIGYAQSVKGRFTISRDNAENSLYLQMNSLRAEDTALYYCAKHGRGGGYFDCWGQGTLVTVSS,nd / nd / nd,1/9 (2.96)
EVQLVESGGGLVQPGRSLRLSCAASGFTFDDYAMHWVRQAPGKGLEWVSGISWNSGSIGKADCVKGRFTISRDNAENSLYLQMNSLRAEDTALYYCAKVGRGGGYFDSWGQGTLVTVSS,nd / nd / nd,0/9
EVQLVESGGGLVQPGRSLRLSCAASGFTFDDYAMHWVRQAPGKGLEWVSGISWNSGSIGYADSVWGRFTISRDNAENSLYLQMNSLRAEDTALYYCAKIHRGGGYFDYWGQGTLVTVSS,3.74 / nd / 3.95,0/9
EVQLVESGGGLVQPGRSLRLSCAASGNTFDDYAMHWVRQAPGKGLEWVSGISWFSGSGGYADSVKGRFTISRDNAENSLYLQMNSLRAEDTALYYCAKVGRGGGYFDYWGQGTLVTVSS,nd / nd / nd,2/9 (4.11)
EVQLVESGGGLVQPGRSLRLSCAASGFTFPDYAMHWVRQAPGKGLEWVSGISWPSGSIGYADSVKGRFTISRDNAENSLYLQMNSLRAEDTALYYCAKVGRGGGYFDEWGQGTLVTVSS,nd / nd / nd,0/9
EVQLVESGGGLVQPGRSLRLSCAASGFTFHDYAMWWVRQAPGKGLEWVSGISWFSGSIGYADSVKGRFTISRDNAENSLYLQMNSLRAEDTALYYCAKVGRGGGYFDYWGQGTLVTVSS,nd / nd / nd,0/9
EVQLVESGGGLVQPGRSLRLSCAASGFTFDDYAMHWVRQAPGKGLEWVSGIGWNSGSIGYADSQKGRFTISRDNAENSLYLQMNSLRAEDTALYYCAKVGRGGGYFDYWGQGTLVTVSS,nd / nd / nd,1/9 (3.23)

The opening 2 entries, copied out:

VH,"replicates, log10 nM",control signals
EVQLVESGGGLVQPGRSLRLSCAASGFTFDDYAMHWVRQAPGKGLEWVSGISWNSGSPGYLDSVKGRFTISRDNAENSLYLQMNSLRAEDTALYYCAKVGRGGGYDDYWGQGTLVTVSS,4.52 / nd / nd,2/9 (2.96)
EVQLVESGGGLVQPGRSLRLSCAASGATFDDYAMHWVRQAPGKGLEWVSWISWNSGDIGYADSVKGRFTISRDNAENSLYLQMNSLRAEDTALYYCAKVGRGGGYFDYWGQGTLVTVSS,nd / nd / nd,1/9 (2.92)

Nonspecific signal, from three strains lacking the peptide, appeared in 21% of pairings of library AAYL51, centred on 4.54 (5% of these signals below 3.26); values are not corrected for it. Also given: how often the same scFv was detected with the empty control strains, with their mean in brackets.